This test addresses Poly [ADP-ribose] polymerase 2 (Homo sapiens, UniProt Q9UGN5). As to the kind of experiment: Inhibition of GST-tagged human PARP2 at 1 uM incubated for 30 mins by chemiluminescence based UV/visible spectrophotometric analysis relative to control.

Protein sequences, listed by entry. Tags and fused reporters are not part of them. Lines headed by an entry give the natural chain unless they say otherwise; changes in a name come on top.
UniProt Q9UGN5: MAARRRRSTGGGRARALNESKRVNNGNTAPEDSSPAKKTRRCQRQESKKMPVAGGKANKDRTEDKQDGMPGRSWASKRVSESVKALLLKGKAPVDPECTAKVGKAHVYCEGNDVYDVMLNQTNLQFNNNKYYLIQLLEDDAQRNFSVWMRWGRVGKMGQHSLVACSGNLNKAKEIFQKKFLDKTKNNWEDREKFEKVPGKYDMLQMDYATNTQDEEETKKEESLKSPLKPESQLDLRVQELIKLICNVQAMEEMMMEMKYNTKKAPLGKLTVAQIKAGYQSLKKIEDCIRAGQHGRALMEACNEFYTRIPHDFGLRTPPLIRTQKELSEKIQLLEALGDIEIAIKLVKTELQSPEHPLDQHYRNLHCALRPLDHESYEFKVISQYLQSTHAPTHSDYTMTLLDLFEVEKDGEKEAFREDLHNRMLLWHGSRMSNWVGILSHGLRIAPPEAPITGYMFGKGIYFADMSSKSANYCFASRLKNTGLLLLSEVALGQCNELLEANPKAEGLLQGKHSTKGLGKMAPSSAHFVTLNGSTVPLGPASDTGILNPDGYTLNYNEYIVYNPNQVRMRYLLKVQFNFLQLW

Bounds are passed on as bounds.

`COc1cc(-c2nc3c(C(N)=O)cccc3[nH]2)ccc1OS(=O)(=O)c1ccc(Br)cc1` gave an inhibition of 48.5%.

For `CCCCOc1c(Br)cc(/C=N/NC(N)=S)cc1OC`, the inhibition is < 5%.

Compound `COc1cc(-c2nc3c(C(N)=O)cccc3[nH]2)cc(Br)c1OC(=O)CCBr` returned an inhibition of 21.2%.

On to `COc1cc(-c2nc3c(C(N)=O)cccc3[nH]2)ccc1OC(=O)c1ccccc1C(F)(F)F`, for which the inhibition was found to be 38.4%.

In the case of `COc1cc(-c2nc3c(C(N)=O)cccc3[nH]2)cc(Br)c1OC(=O)C(C)(C)C`, the inhibition was determined as 38.4%.

As for `COc1cc(/C=N/NC(N)=S)c(Br)c(Br)c1OCc1ccc(C)cc1`, the inhibition was 13.9%.

Turning to `CCCS(=O)(=O)Oc1c(Br)cc(-c2nc3c(C(N)=O)cccc3[nH]2)cc1OC`, the inhibition turned out to be 58.2%.

Take `COc1cc(-c2nc3c(C(N)=O)cccc3[nH]2)cc(Br)c1OS(=O)(=O)c1ccc(I)cc1`: the inhibition is < 5%.

For `COc1cc(-c2nc3c(C(N)=O)cccc3[nH]2)cc(Br)c1OS(=O)(=O)c1cccc(Br)c1`, the inhibition is < 5%.

Take `COc1cc(-c2nc3c(C(N)=O)cccc3[nH]2)ccc1OS(=O)(=O)c1cccc(Br)c1`: the inhibition stood at 47.5%.

Turning to `COc1cc(/C=N/NC(N)=S)ccc1OS(=O)(=O)c1c(C)cc(C)cc1C`, the inhibition came to 46.7%.

`CCc1ccc(C(=O)Oc2c(OC)cc(-c3nc4c(C(N)=O)cccc4[nH]3)c(Br)c2Br)cc1` registered an inhibition of 26.7%.

Consider `COc1cc(-c2nc3c(C(N)=O)cccc3[nH]2)c(Br)c(Br)c1OS(=O)(=O)c1ccc(OC(F)(F)F)cc1`, for which the inhibition was < 5%.

`COc1cc(/C=N/NC(N)=S)cc(Br)c1OS(=O)(=O)C(F)(F)F` came in with an inhibition of 18.4%.

As for `COc1cc(-c2nc3c(C(N)=O)cccc3[nH]2)c(Br)c(Br)c1OC(C)=O`, the inhibition came to 31.2%.

Regarding `COc1cc(-c2nc3c(C(N)=O)cccc3[nH]2)c(Br)c(Br)c1OC(=O)c1ccc(F)cc1`, the inhibition was found to be 46.8%.

Compound `COc1cc(-c2nc3c(C(N)=O)cccc3[nH]2)c(Br)c(Br)c1OC(=O)CCBr` came in with an inhibition of 57.8%.

`COc1cc(/C=N/NC(N)=S)c(Br)c(Br)c1OCc1ccc(Br)cc1`: the inhibition is 35.3%.

In the case of `COc1cc(/C=N/NC(N)=S)cc(Br)c1OC(=O)C(C)(C)C`, the inhibition is < 5%.

The inhibition is the share of the control response that was lost under treatment.

The values are drawn from ChEMBL document CHEMBL5512675, “Design of Selective PARP-1 Inhibitors and Antitumor Studies” (J Med Chem, 2024).
